Measured values reported in patent US7364741B1, “Peptides of human Papilloma virus for use in human T cell response inducing compositions” (priority 1992, dated 2008).

Target: T1, HLA-A2.1 (Homo sapiens, UniProt P04439, D140Y/D185E/D98H/E176V/E277Q/G131W/G231S/I119V/I121R/I166T/I218V/L300P/L318F/N151K/N90K/P208A/P217A/Q86G/Q94H/R138H/R169H/T345S)
T1 construct: endogenous in cells; host or cells: 174CEM.T2
Format: cell-based

KLPQLCTEL [HPV16 peptide 1]
FI (Fluorescence Index): 1.6
MF (mean HLA-A2.1 fluorescence): 168.6
